Assay results: article PMC4677665 (ACS Medicinal Chemistry Letters, 2015)

Test system: CRL-8155 human lymphocytic cells
Details: CRL-8155 cell line, 48 hours

Row | Compound | cytotoxicity [µM]
1 | CCOc1ccc2cc(-c3nn(C(C)C)c(N)c3C(N)=O)ccc2n1 [Compound 18] | >40
2 | CC(C)(C)n1nc(-c2cnc3cc(OC4CCC4)ccc3c2)c(C(N)=O)c1N [Compound 36] | >40
3 | CC(C)(C)n1nc(-c2cnc3cc(OC4CC4)ccc3c2)c(C(N)=O)c1N [Compound 34] | >40
